Columns and labels:
[1] = test system: FLG; experiment: qPCR gene expression assay in differentiated primary keratinocytes; conditions: primary keratinocytes differentiated 72hrs with 1.2mM Ca2+; treated 24hrs; test compound 10µm; relative to housekeeper genes
Procedure: (§1) Barrier function and development are keys to proper skin function and health. A comparative series of gene assays were performed on barrier function related genes to show the performance of compounds of general formula (I) according to the present invention.
(§2) Primary keratinocytes from 5 donors were pooled and plated at 100,000 cells/well in 6 well plates. Cells were grown in KGM-Gold (Lonza) at 37°C, 5% CO2 and then differentiated for 72hrs via the addition of 1.2mM Ca^2+. Cells were then treated for 24hrs with fresh medium containing vehicle, or vehicle plus test compound, using a test compound concentration of 10µm. Following treatment any effect on cell viability was confirmed via an LDH assay on the culture media. The cells were washed in PBS and RNA isolated via QIAzol (QIAgen) following the manufacturer's instructions. RNA quantity and quality was measured via Nanodrop and bioanalyzer assessments ahead of qPCR assessment for the levels of specific gene products. Test genes were selected to cover various aspects of epidermal function and quantified relative to the levels of a control panel of housekeeper genes. A positive fold change (log2 FC) value indicates an increase of expression, while a negative fold change indicates a decrease in expression.

[2] = test system: ELOVL4; experiment: as above; conditions: primary keratinocytes differentiated 72hrs with 1.2mM Ca2+; treated 24hrs; test compound 10µm; relative to housekeeper genes
Procedure: as §1, §2

[3] = test system: KRT10; experiment: as above; conditions: primary keratinocytes differentiated 72hrs with 1.2mM Ca2+; treated 24hrs; test compound 10µm; relative to housekeeper genes
Procedure: as §1, §2

[4] = test system: CERS3; experiment: as above; conditions: primary keratinocytes differentiated 72hrs with 1.2mM Ca2+; treated 24hrs; test compound 10µm; relative to housekeeper genes
Procedure: as §1, §2

[5] = test system: CLDN1; experiment: as above; conditions: primary keratinocytes differentiated 72hrs with 1.2mM Ca2+; treated 24hrs; test compound 10µm; relative to housekeeper genes
Procedure: as §1, §2

[6] = test system: ALOX12B; experiment: as above; conditions: primary keratinocytes differentiated 72hrs with 1.2mM Ca2+; treated 24hrs; test compound 10µm; relative to housekeeper genes
Procedure: as §1, §2

[7] = test system: LOR; experiment: as above; conditions: primary keratinocytes differentiated 72hrs with 1.2mM Ca2+; treated 24hrs; test compound 10µm; relative to housekeeper genes
Procedure: as §1, §2

[8] = test system: TGM1; experiment: as above; conditions: primary keratinocytes differentiated 72hrs with 1.2mM Ca2+; treated 24hrs; test compound 10µm; relative to housekeeper genes
Procedure: as §1, §2

[9] = test system: KLK11; experiment: as above; conditions: primary keratinocytes differentiated 72hrs with 1.2mM Ca2+; treated 24hrs; test compound 10µm; relative to housekeeper genes
Procedure: as §1, §2

[10] = test system: barrier function related genes; experiment: qPCR gene expression assay in differentiated primary keratinocytes, all test genes together; conditions: average over the 9 test genes, treated 24hrs, test compound 10µm
Procedure: as §1, §2

Row | SMILES | Test Gene FLG log2 FC [1] | Test Gene ELOVL4 log2 FC [2] | Test Gene KRT10 log2 FC [3] | Test Gene CERS3 log2 FC [4] | Test Gene CLDN1 log2 FC [5] | Test Gene ALOX12B log2 FC [6] | Test Gene LOR log2 FC [7] | Test Gene TGM1 log2 FC [8] | Test Gene KLK11 log2 FC [9] | Average log2 FC [10]
1 | Nc1ccccc1C(=O)Nc1cccnc1 | 0.741 log2 FC | 0.608 log2 FC | 0.669 log2 FC | 0.369 log2 FC | 0.454 log2 FC | 1.039 log2 FC | 1.511 log2 FC | 0.735 log2 FC | 0.397 log2 FC | 0.725 log2 FC
2 | O=C(Nc1cccnc1)c1ccc(O)cc1 | 0.658 log2 FC | 0.421 log2 FC | 0.457 log2 FC | 0.483 log2 FC | 0.376 log2 FC | 0.491 log2 FC | 1.295 log2 FC | 0.352 log2 FC | 0.063 log2 FC | 0.511 log2 FC
